For orientation: Ki means a measure of affinity in units of concentration, obtained from inhibition or displacement. For orientation: EC50 means the concentration at which the effect is half-maximal.

Protein sequences, listed by entry. Tags and fused reporters are not part of them. Lines headed by an entry give the natural chain unless they say otherwise; changes in a name come on top.
UniProt P41145: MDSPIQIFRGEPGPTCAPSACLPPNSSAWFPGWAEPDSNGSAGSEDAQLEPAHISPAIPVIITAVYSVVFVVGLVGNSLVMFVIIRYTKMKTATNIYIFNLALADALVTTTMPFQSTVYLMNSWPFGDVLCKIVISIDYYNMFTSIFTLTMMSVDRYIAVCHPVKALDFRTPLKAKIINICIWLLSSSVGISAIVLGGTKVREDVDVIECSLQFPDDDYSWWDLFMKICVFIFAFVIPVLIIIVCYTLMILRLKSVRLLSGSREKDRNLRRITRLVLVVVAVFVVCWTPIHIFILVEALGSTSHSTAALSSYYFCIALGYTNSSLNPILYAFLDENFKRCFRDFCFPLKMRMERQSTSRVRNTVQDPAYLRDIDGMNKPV
UniProt P35372, whole entry: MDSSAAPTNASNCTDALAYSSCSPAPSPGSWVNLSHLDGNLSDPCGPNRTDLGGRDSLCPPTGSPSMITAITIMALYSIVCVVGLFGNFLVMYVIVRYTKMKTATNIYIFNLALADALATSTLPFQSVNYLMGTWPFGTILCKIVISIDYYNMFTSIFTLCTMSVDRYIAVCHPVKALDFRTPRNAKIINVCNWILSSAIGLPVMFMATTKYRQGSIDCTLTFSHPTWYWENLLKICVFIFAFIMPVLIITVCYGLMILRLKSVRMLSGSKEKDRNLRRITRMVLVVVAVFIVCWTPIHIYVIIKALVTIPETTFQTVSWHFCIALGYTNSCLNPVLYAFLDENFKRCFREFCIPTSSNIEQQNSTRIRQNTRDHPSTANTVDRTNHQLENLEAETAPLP

The text below walks through data of ChEMBL document CHEMBL3351980, “Michael acceptor approach to the design of new salvinorin A-based high affinity ligands for the kappa-opioid receptor” (Eur J Med Chem, 2014).

Assay [1] addresses T1, Kappa-type opioid receptor (Homo sapiens, UniProt P41145). Put plainly: Displacement of [3H]U69593 from kappa opioid receptor (unknown origin) expressed in HEK293T cells after 1.5 hrs by radioligand binding assay. In kind it is cell-based, HEK-293T. The procedure, abridged: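 HEK293T cells stably expressing KOR were hypotonically lysed in 50 mM Tris-HCl, 10 mM MgCl2, 0.1 mM EDTA, pH 7.4, and membranes were pelleted. Membranes (1 μg protein/μL suspension) were incubated with 0.5 nM [3H]U-69593 and competitor at 10 pM–10 μM final for 1.5 h in the dark at room temperature. Samples were filtered onto PEI-soaked GF/A filters and scintillation counted. Ki came from a one-site competition fit.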

The species entered for assay [2] is Homo sapiens. Put plainly: Selectivity ratio of Ki for delta opioid receptor (unknown origin) to ratio of Ki for kappa opioid receptor (unknown origin).
The species entered for assay [3] is Homo sapiens. In words: Selectivity ratio of Ki for mu opioid receptor (unknown origin) to ratio of Ki for kappa opioid receptor (unknown origin).
The target of the next assay is Mu-type opioid receptor (Homo sapiens, UniProt P35372). Put plainly: Displacement of [3H]DAMGO from mu opioid receptor (unknown origin) expressed in HEK293T cells after 1.5 hrs by radioligand binding assay. In kind it is cell-based, HEK-293T.
Assay [4] addresses T1, Kappa-type opioid receptor. Put plainly: Inhibition of human kappa opioid receptor expressed in HEK293T cells assessed as inhibition of cAMP production after 30 mins. The assay is classed as functional, cell-based, HEK-293T. The procedure, abridged:
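HEK293T cells were transiently co-transfected with the GloSensor-22F cAMP biosensor and hKOR, then seeded after 18 h at 37 °C in HBSS, 10% FBS, 20 mM HEPES, pH 7.4. After 1–2 h recovery, cells received drug for 30 min. cAMP was then stimulated with isoproterenol, added as a 1,200 nM 4× solution in GloSensor reagent, and luminescence was read.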
Background: Changes in cAMP serve as a functional read-out for many G protein-coupled receptors.

Structures are written as SMILES.

In the case of `C=CCC(=O)O[C@H]1C[C@@H](C(=O)OC)[C@]2(C)CC[C@H]3C(=O)O[C@H](c4ccoc4)C[C@]3(C)[C@H]2C1=O`, the Ki in assay [1] stood at 10 nM; at Mu-type opioid receptor, 1440 nM. For the same compound, the figures for the Ratio Ki in the assay filed under Homo sapiens [2] and in the assay listed under Homo sapiens [3] were 326 and 144, respectively. For the same compound, the EC50 in assay [4] amounted to 23 nM.
